Experimental data from ChEMBL document CHEMBL3352459, “Synthesis and evaluation of N-acyl-substituted 1,2-benzisothiazol-3-one derivatives as caspase-3 inhibitors” (Bioorg Med Chem, 2014).

Target: T1, Caspase-3 (Homo sapiens, UniProt P42574)
T1 sequence (P42574 whole entry): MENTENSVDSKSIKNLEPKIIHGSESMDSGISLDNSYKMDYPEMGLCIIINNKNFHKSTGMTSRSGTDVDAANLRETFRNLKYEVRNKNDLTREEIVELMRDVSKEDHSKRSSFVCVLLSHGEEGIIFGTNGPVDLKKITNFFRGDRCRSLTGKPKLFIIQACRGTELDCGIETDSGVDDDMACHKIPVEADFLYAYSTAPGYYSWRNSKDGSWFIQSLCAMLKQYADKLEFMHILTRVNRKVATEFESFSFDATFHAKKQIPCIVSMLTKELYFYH
Test: Inhibition of recombinant human caspase-3 activity using Ac-DEVD-AMC as substrate preincubated for 10 mins by fluorescence assay

IC50: 75.7 nM
Compound: CC(=O)N[C@@H](CC(=O)O)C(=O)N[C@@H](CCC(=O)O)C(=O)N[C@H](C(=O)N[C@H](C=O)CC(=O)O)C(C)C
